{"source": "patent US7615102B2", "about": "“Corrosion and gas hydrate inhibitors with an increased biological degradability and a reduced toxicity” (Clariant Produkte (Deutschland) GmbH, priority 2004, dated 2009)", "assay": "Biodegradability (OECD 306)"}
{"substance": "Dodecenyl-/tetradecenylsuccinic Acid N,N-dibutylamino-N-tri(ethoxy)ethyl Ester Triethanolamine Salt [Compound from example 13]", "values": [{"measurement": "Biodegradability", "value": 81.5, "unit": "%"}]}
{"substance": "Pentapropylenesuccinic Acid N,N-dibutylamino-N-tri(ethoxy)ethyl Ester Triethanolamine Salt [Compound from example 16]", "values": [{"measurement": "Biodegradability", "value": 85.4, "unit": "%"}]}
